From ChEMBL document CHEMBL4819145, “Synthesis and evaluation of bifunctional PTP4A3 phosphatase inhibitors activating the ER stress pathway” (Bioorg Med Chem Lett, 2021) come the findings set out here.

Each structure is given as a SMILES string.

The assay concerns MDA-MB-231. The assay can be described thus: cells. The settings on record: Homo sapiens, MDA-MB-231, 72 h.

By EC50 is commonly meant the midpoint of the concentration-response curve. Low readings indicate greater potency, high ones weaker potency. `N=C1C(=O)NC(=O)c2cc(-c3ccc(OCCCCNC(=O)CC45CC6CC(CC(C6)C4)C5)cc3)sc21`: the EC50 came out at 8.6 µM.
